Patent US9018162B2, “Methods for rapidly treating severe hypoglycemia” (Xeris Pharmaceuticals, Inc., priority 2013, dated 2015)

Assay: Effect of pH on insulin solubility in DMSO (visual, A630)
Type: physicochemical
Experimental: Insulin was dissolved in H2O at 10 mg/mL with a 10 mM phosphate/citrate-1 mM EDTA buffer at either pH 2 or pH 7. These solutions were lyophilized to dryness ([…]) using a conservative cycle and reconstituted to various nominal concentrations in DMSO. Solubility was measured by visual inspection for clarity and turbidity via A630.

insulin
solubility in DMSO (pH memory of 7, lowest concentration tested 10 mg/mL): poor solubility
solubility in DMSO (pH of 2): at least 100 mg/mL
